Laboratory results published in ChEMBL document CHEMBL2203150, “CXCR3 antagonists: quaternary ammonium salts equipped with biphenyl- and polycycloaliphatic-anchors” (Bioorg Med Chem, 2011).

Experiments:
[1] = target: T1, C-X-C chemokine receptor type 3 (Homo sapiens, UniProt P49682); assay: Displacement of [125I]-CXCL11 from human CXCR3 expressed in HEK293 cells; type: cell-based
T1 sequence (P49682 whole entry): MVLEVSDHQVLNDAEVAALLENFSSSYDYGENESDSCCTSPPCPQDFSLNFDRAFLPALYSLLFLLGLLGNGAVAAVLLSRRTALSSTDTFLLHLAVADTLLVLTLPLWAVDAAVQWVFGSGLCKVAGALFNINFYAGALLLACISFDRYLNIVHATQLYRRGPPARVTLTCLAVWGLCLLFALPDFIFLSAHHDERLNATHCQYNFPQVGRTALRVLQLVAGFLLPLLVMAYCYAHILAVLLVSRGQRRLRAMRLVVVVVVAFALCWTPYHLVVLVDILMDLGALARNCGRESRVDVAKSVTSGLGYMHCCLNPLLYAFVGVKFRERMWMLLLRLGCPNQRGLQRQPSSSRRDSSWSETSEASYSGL
How it was run: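 Membranes of HEK293 cells stably expressing hCXCR3, radioligand ¹²⁵I-CXCL11; displacement by test compound measured to derive pKi; n = 2–4, each in duplicate.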

[2] = target: T1, C-X-C chemokine receptor type 3; assay: Displacement of [125I]-CXCL10 from human CXCR3 expressed in HEK293 cells; type: cell-based
How it was run: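 Membranes from HEK293 cells stably expressing hCXCR3; competition against ¹²⁵I-CXCL10 binding; non-specific binding defined with 10 µM CXCR3 antagonist reference; full concentration-displacement curves give pKi; n = 2–4, each in duplicate.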

- Ki [1]: 158 nM
- Ki [2]: 39.8 nM
Compound: CCOc1ccc(-n2c([C@@H](C)N(Cc3cccnc3)C(=O)Cc3ccc(OC(F)(F)F)cc3)nc3ncccc3c2=O)cc1
